{"source": "patent US20240050441A1", "about": "“COMBINATION THERAPIES FOR THE TREATMENT OF CANCER” (Erasca, Inc., priority 2020, published 2024)", "assay_in_all_cases": "Cellular proliferation assay (CellTiter-Glo, day 5)", "assay_type_in_all_cases": "cell-based", "key": {"[1]": {"system": "SCC-25 cells", "method": "(§1) The cell lines used in the study were obtained from ATCC (CAL 27 #CRL-2095, SCC-15 #CRL-1623, SCC-25 #CRL-1628, SCC-4 #CRL-1624 and SCC-9 #CRL-1629). The cell line, CAL 27 was cultured in DMEM (Gib co #). SCC-4, SCC-15, SCC-25, SCC-9 cell lines was cultured in a 1:1 mixture of DMEM and Ham's F12 medium containing 1.2 g/L sodium bicarbonate, 2.5 mM L-glutamine, 15 mM HEPES and 0.5 mM sodium pyruvate supplemented with 400 ng/ml hydrocortisone, 90%; fetal bovine serum, 10% (Hyclone #SH-30071.03) and Penicillin/Streptomycin (Thermo Fisher #15070-063). The cells were maintained at 37° C./5% CO2. Cells were washed in ice cold PBS (Thermo Fisher Scientific #10010-023) and lysed in RIPA Lysis and Extraction Buffer (Thermo Fisher Scientific #89900) supplemented with Halt Phosphatase and Protease Inhibitor (Thermo Fisher Scientific #78445). The membrane was blocked for non-specific proteins by Bovine Serum Albumin BSA (Cell Signaling Tech #9998). Antibodies for immunoblotting were as follows: phospho-p44/42 ERK1/2 (Cell Signaling Tech #4370), ERK2 antibody (Santa Cruz #sc-1647), anti-mouse IgG HRP-linked antibody (Cell Signaling Tech #7076), and anti-rabbit IgG HRP-linked antibody (Cell Signaling Tech #7074).\n[…] HPV-negative head and neck squamous cancer cell lines, CAL 27, SCC-4, SCC-9, SCC-15 and SCC-25 were split onto 96 well plates. […] (FIGS. 2-5)."}, "[2]": {"system": "SCC-15 cells", "conditions": "up to 5 μg/ml of cetuximab alone", "method": "as §1\n(§2) […] HPV-negative head and neck squamous cancer cell lines, CAL 27, SCC-4, SCC-9, SCC-15 and SCC-25 were split onto 96 well plates."}, "[3]": {"system": "SCC-9 cells", "conditions": "up to 2.5 μg/ml of cetuximab alone", "method": "as §1, §2"}}, "data": [{"substance": "cetuximab [reference compound]", "values": [{"measurement": "decrease of cell viability (percent CTG activity)", "setting": "[1]; cetuximab treatment alone", "value": "did not decrease the cell viability"}, {"measurement": "decrease in cell viability", "setting": "[1]; up to 5 μg/ml of cetuximab alone", "value": "no noticeable decrease in cell viability"}, {"measurement": "decrease in cell viability", "setting": "[2]", "value": "no noticeable decrease in cell viability"}, {"measurement": "decrease in cell viability", "setting": "[3]", "value": "no noticeable decrease in cell viability"}]}]}
